Reference: patent US20200206304A1, “METHODS AND COMPOSITIONS FOR EFFICIENT DELIVERY THROUGH MULTIPLE BIO BARRIERS” (Cedars-Sinai Medical Center, priority 2017, published 2020)
“Also recorded” adds a separate entry of the source.

Key:
[1] = Zeta potential measurements (Zetasizer Nano ZS90); assay type: physicochemical
Experimental: Zeta Potential Measurements: Synthesized conjugates were characterized with respect to their ζ potential using a Zetasizer Nano ZS90 (Malvern Instruments, Malvern, UK). Ten microliter aliquots of nanoconjugate samples were diluted in 0.99 mL PBS, and the voltage applied was 150 mV. Data represent the mean of three measurements±their standard deviation.

[2] = Dynamic light scattering, hydrodynamic diameter and PDI; assay type: physicochemical; conditions: DLS in PBS, conjugates without attached rhodamine
Experimental: Dynamic Light Scattering: Synthesized conjugates were characterized using a Zetasizer Nano ZS90 (Malvern Instruments, Malvern, UK). Ten microliter aliquots of nanoconjugate samples were diluted in 0.99 mL PBS and were measured 3 times using a clear cuvette. Data represent the mean of three measurements and polydispersity index.

[3] = system: blood-brain barrier (BBB); assay: BBB penetration: nanoconjugate fluorescence in brain parenchyma of healthy mice by optical imaging; conditions: i.v. 0.068-0.548 μmol/kg, 120 min, cortex, midbrain, hippocampus
glioblastoma GL261 = conditions: injected dose 1×-4×
[4] = tail vein injection, dose 2× (0.137 μmol/Kg)
[5] = system: blood-brain barrier (BBB); assay: BBB crossing of nanoconjugates with IgG cargo in normal brain; conditions: for BBB permeation efficacy of IgG nanoconjugates (in words): normal brain, 2 h post injection, dose 2× (0.137 μmol/kg) or 4× (0.274 μmol/kg)
[6] = mini nanodrugs containing IgG, voltage 6.92 mV

PMLA/AP2/rhodamine [P/AP2]
ζ potential ([1]; in PBS, voltage 150 mV): −11.5 mV | Hydrodynamic diameter (volume mode) [2]: 5.93 nm | PDI [2]: (0.79) | PDI ([2]; listed as P/AP-2): 0.79 | AUC 0-inf (IV tail vein, best fit curve): 10900 ng·h/mL | AUC 0-t (IV tail vein, best fit curve): 10800 ng·h/mL | AUMC (IV tail vein, best fit curve): 19.3 μg/ml*h^2 | C0 (IV tail vein, best fit curve): 18500 ng/mL | CL (IV tail vein, best fit curve): 0.366 (μg)/(μg/ml)/h | CL2 (IV tail vein, best fit curve): 2.60 (μg)/(μg/ml)/h | MRT (IV tail vein, best fit curve): 107 min | V (IV tail vein, best fit curve): 0.22 (μg)/(μg/ml) | V2 (IV tail vein, best fit curve): 0.435 (μg)/(μg/ml) | Vss (IV tail vein, best fit curve): 0.65 μg/(μg/ml) | k10 (IV tail vein, best fit curve): 1.69 h⁻¹ | k12 (IV tail vein, best fit curve): 12.0 h⁻¹ | k21 (IV tail vein, best fit curve): 6.0 h⁻¹ | t½Alpha (IV tail vein, best fit curve): 2.16 min | t½Beta (IV tail vein, second phase): 78.6 min | Residual amount of nanoconjugate after 4 h from injection (blood, 4 h): less than 6% | BBB penetration / nanoconjugate fluorescence in brain parenchyma (in words) [3]: little potential for BBB penetration | BBB penetration / nanoconjugate fluorescence in brain parenchyma (in words) ([3]; listed as P/AP-2/rhodamine): poor BBB penetration

PMLA/LLL/AP2(1%)/B6(1%)/rhodamine [P/LLL/AP2/B6]
ζ potential ([1]; in PBS, voltage 150 mV): −6.2 mV | selectivity R/T attainable per DoE contour plots (glioblastoma GL261): can be achieved

PMLA/LLL/AP2(1%)/rhodamine [P/LLL/AP2-1]
ζ potential ([1]; in PBS, voltage 150 mV): −2.5 mV | selectivity R/T attainable per DoE contour plots (glioblastoma GL261): ≤ 12

PMLA/LLL/AP2(4%)/rhodamine [P/LLL/AP2 (4%)]
ζ potential ([1]; in PBS, voltage 150 mV): −2.2 mV | BBB penetration / nanoconjugate fluorescence in brain parenchyma (in words) [3]: decreased BBB penetration

PMLA/LLL/AP2/IgG(0.2%)/rhodamine [P/LLL/AP2/IgG]
ζ potential [1, 6]: −7.4 mV | half-life in blood [4]: 40 min | slow decline / final retention in parenchyma ([5]; dose 2× (0.137 μmol/Kg)): > 500 min | BBB permeation efficacy of IgG nanoconjugates (in words) [5]: an increase was visible; also recorded: highest category | BBB permeation efficacy of IgG nanoconjugates (in words) ([5]; listed as P/LLL (40%)/AP-2/IgG): permeates the BBB with higher efficacy compared to P/LLL (40%)/IgG

PMLA/LLL/AP2/IgG-Rhodamine [P/LLL/AP2/IgG-rh]
BBB permeation efficacy of IgG nanoconjugates (in words) [5]: lower

PMLA/LLL/AP7/rhodamine [P/LLL/AP7]
ζ potential ([1]; in PBS, voltage 150 mV): −5.48 mV | BBB penetration / nanoconjugate fluorescence in brain parenchyma (in words) [3]: significantly less fluorescence than P/LLL/AP-2

PMLA/LLL/B6(1%)/rhodamine [P/LLL/B6-1]
ζ potential ([1]; in PBS, voltage 150 mV): −10.8 mV

PMLA/LLL/B6/IgG(0.2%)/rhodamine [P/LLL/B6/IgG]
ζ potential [1, 6]: −7.9 mV | BBB permeation efficacy of IgG nanoconjugates (in words) [5]: significantly higher than P/LLL/B6 levels; also recorded: highest category | BBB permeation efficacy of IgG nanoconjugates (in words) ([5]; listed as P/LLL/B6/IgG/rh): increased in a similar fashion

PMLA/LLL/D1/AON-Fluorescein(1%) [P/LLL/D1/AON-F]
ζ potential ([1]; in PBS, voltage 150 mV): −6.98 mV

PMLA/LLL/D1/IgG(0.2%)/rhodamine [P/LLL/D1/IgG]
ζ potential [1, 6]: −7.8 mV | BBB permeation efficacy of IgG nanoconjugates (in words) [5]: the levels in the midbrain and cortex remained the same as P/LLL/D1/rh, while a slight drop was seen at the hippocampus

PMLA/LLL/D3(2%)IgG(0.2%)/rhodamine [P/LLL/D3/IgG]
ζ potential [1, 6]: −6.5 mV | BBB permeation efficacy of IgG nanoconjugates (in words) [5]: larger drop compared to P/LLL/D3/rh

PMLA/LLL/IgG(0.2%)/rhodamine [P/LLL/IgG]
ζ potential [1, 6]: −10.4 mV | BBB permeation efficacy of IgG nanoconjugates (in words) ([5]; listed as P/LLL (40%)/IgG): permeate the BBB | BBB permeation efficacy of IgG nanoconjugates (in words) ([5]; listed as P/LLL/IgG/rh): LLL-induced increase in permeation

PMLA/LLL/cTfRL/rhodamine [P/LLL/cTfRL]
ζ potential ([1]; in PBS, voltage 150 mV): −9.58 mV | BBB penetration / nanoconjugate fluorescence in brain parenchyma (in words) [3]: fluorescence intensity measurements comparable to B6 in the midbrain and hippocampus

PMLA/cTfRL/rhodamine [P/cTfRL]
ζ potential ([1]; in PBS, voltage 150 mV): −15.2 mV | BBB penetration / nanoconjugate fluorescence in brain parenchyma (in words) [3]: poor penetration into the brain parenchyma

PMLA/rhodamine [P/Rh]
ζ potential ([1]; in PBS, voltage 150 mV): −22.9 mV
